The source of these data is patent publication US20230043678A1, “USE OF 5-METHYLTETRAHYDROFOLATE” (priority 2019, published 2023).

The data set concerns zebrafish embryos. The procedure: A table was listed below for details.
5-Selected concentrations of methyltetrahydrofolate in the experiment were recorded in the table.

Regarding lead nitrate [Pb(NO3)2], the “survival rate of embryos” value (2 and 4 mM Pb(NO3)2, 2-8 hpf) is listed as “reduced a survival rate of embryos”. For the same substance, the “intersegmental blood vessels and pericardium edema” value (2 and 4 mM Pb(NO3)2, 48 hpf) is “did not affect development of intersegmental blood vessels in the zebrafish and did not lead to pericardium edema”. Besides, the embryo phenotype entry (2 and 4 mM Pb(NO3)2, 72 hpf) was “led to a shortened body length of the zebrafish and a large amount of embryonic malformations”. The “10 s heart rate (48 hpf), body length and malformation rate (72 hpf)” value (Pb(NO3)2 2 and 4 mM) was “seriously led to bradycardia, a shortened body length and an increased malformation rate of embryos”.
